Laboratory results as given in PubChem BioAssay (NCI).
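Exposure lasted 48 hours, with cells grown in 96-well plates and compounds tested at five concentrations. Here, GI50 denotes the concentration required for 50% inhibition of growth. TGI: total growth inhibition.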

Legend:
Experiment in all cases: inhibition of tumour cell growth, NCI panel, 48 h
[1] = system: 786-0 renal
[2] = system: A498 renal
[3] = system: A549 NSCLC
[4] = system: ACHN renal
[5] = system: BT-549 breast
[6] = system: CAKI-1 renal
[7] = system: CCRF-CEM leukemia
[8] = system: DU-145 prostate
[9] = system: HCC-2998 colon
[10] = system: HCT-116 colon
[11] = system: HCT-15 colon
[12] = system: HL-60(TB) leukemia
[13] = system: HOP-62 NSCLC
[14] = system: HT29 colon
[15] = system: IGROV1 ovarian
[16] = system: K-562 leukemia
[17] = system: LOX IMVI melanoma
[18] = system: M14 melanoma
[19] = system: MALME-3M melanoma
[20] = system: MCF7 breast
[21] = system: MDA-MB-231 breast
[22] = system: MDA-MB-435
[23] = system: MDA-N
[24] = system: MOLT-4 leukemia
[25] = system: NCI-H226 lung
[26] = system: NCI-H23 lung
[27] = system: NCI-H460 lung
[28] = system: NCI-H522 lung
[29] = system: OVCAR-3 ovarian
[30] = system: OVCAR-4 ovarian
[31] = system: OVCAR-5 ovarian
[32] = system: OVCAR-8 ovarian
[33] = system: PC-3 prostate
[34] = system: RPMI-8226 leukemia
[35] = system: SF-268 CNS
[36] = system: SK-MEL-2 melanoma
[37] = system: SK-MEL-28 melanoma
[38] = system: SK-MEL-5 melanoma
[39] = system: SN12C renal
[40] = system: SNB-19 CNS
[41] = system: SNB-75 CNS
[42] = system: SR leukemia
[43] = system: SW-620 colon
[44] = system: T-47D breast
[45] = system: TK-10 renal
[46] = system: U251 CNS
[47] = system: UACC-257 melanoma
[48] = system: UACC-62 melanoma
[49] = system: UO-31 renal

O=C(N=Nc1ccc([N+](=O)[O-])cc1[N+](=O)[O-])NNc1ccc([N+](=O)[O-])cc1[N+](=O)[O-]
GI50 [1]: 2.83 µM
TGI [1]: 10.6 µM
GI50 [2]: 2.51 µM
TGI [2]: 7.18 µM
GI50 [3]: 3.94 µM
TGI [3]: 21.4 µM
GI50 [4]: 3.2 µM
TGI [4]: 15.9 µM
GI50 [5]: 2.34 µM
TGI [5]: 70.9 µM
GI50 [6]: 3.8 µM
TGI [6]: > 100 µM
GI50 [7]: 2.92 µM
TGI [7]: 15.4 µM
GI50 [8]: 5.53 µM
TGI [8]: 31 µM
GI50 [9]: 2.72 µM
TGI [9]: 10.1 µM
GI50 [10]: 2.57 µM
TGI [10]: 11 µM
GI50 [11]: 4.89 µM
TGI [11]: 62.9 µM
GI50 [12]: 2.4 µM
TGI [12]: 7.46 µM
GI50 [13]: 5.32 µM
TGI [13]: 17 µM
GI50 [14]: 2.81 µM
TGI [14]: > 100 µM
GI50 [15]: 7.08 µM
TGI [15]: 34.5 µM
GI50 [16]: 2.8 µM
TGI [16]: > 100 µM
GI50 [17]: 3.57 µM
TGI [17]: 12.5 µM
GI50 [18]: 3.99 µM
TGI [18]: 19 µM
GI50 [19]: 2.05 µM
TGI [19]: 7.55 µM
GI50 [20]: 1.4 µM
TGI [20]: 4.09 µM
GI50 [21]: 3.52 µM
TGI [21]: 40.8 µM
GI50 [22]: 6.7 µM
TGI [22]: 40.8 µM
GI50 [23]: 7.21 µM
TGI [23]: 43.5 µM
GI50 [24]: 2.95 µM
TGI [24]: 15.7 µM
GI50 [25]: 3.12 µM
TGI [25]: 16.5 µM
GI50 [26]: 2.41 µM
TGI [26]: 11.4 µM
GI50 [27]: 3.31 µM
TGI [27]: 19.3 µM
GI50 [28]: 2.07 µM
TGI [28]: 5.73 µM
GI50 [29]: 2.61 µM
TGI [29]: 5.96 µM
GI50 [30]: 2.38 µM
TGI [30]: 15.3 µM
GI50 [31]: 7.86 µM
TGI [31]: 53.7 µM
GI50 [32]: 3.25 µM
TGI [32]: 13.3 µM
GI50 [33]: 2.6 µM
TGI [33]: 8.41 µM
GI50 [34]: 2.63 µM
TGI [34]: 9.32 µM
GI50 [35]: 10.4 µM
TGI [35]: 72.9 µM
GI50 [36]: 1.97 µM
TGI [36]: 7.4 µM
GI50 [37]: 3.94 µM
TGI [37]: 21.3 µM
GI50 [38]: 5.05 µM
TGI [38]: 17.9 µM
GI50 [39]: 3.65 µM
TGI [39]: 25.1 µM
GI50 [40]: 4.58 µM
TGI [40]: > 100 µM
GI50 [41]: 12.8 µM
TGI [41]: > 100 µM
GI50 [42]: 3.57 µM
TGI [42]: > 100 µM
GI50 [43]: 4.01 µM
TGI [43]: 24 µM
GI50 [44]: 2.31 µM
TGI [44]: 17.6 µM
GI50 [45]: 8.06 µM
TGI [45]: 55.6 µM
GI50 [46]: 2.98 µM
TGI [46]: 21.6 µM
GI50 [47]: 2.12 µM
TGI [47]: 9.87 µM
GI50 [48]: 4.76 µM
TGI [48]: 19.2 µM
GI50 [49]: 2.44 µM
TGI [49]: 9.12 µM
